## Antibody variant affinities, Ab-91 heavy chain, assay 2

From the AlphaSeq antibody data of Engelhart et al. 2022 (doi:10.1038/s41597-022-01779-4), copy in the FLAb collection.

Target peptide (SARS-CoV-2 spike, HR2 region): PDVDLGDISGINAS

Parent: Ab-91, a human scFv built as VL, a (GGGGS)3 linker, VH. Only the CDRs of the heavy chain vary.
VL: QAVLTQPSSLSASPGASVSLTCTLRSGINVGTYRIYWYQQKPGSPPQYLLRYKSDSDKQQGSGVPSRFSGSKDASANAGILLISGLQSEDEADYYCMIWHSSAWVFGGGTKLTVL
VH: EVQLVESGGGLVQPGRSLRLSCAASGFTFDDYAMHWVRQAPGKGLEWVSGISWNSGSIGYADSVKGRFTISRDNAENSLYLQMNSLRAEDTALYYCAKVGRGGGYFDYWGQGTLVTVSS

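Variants in AAYL51 differ from the parent at up to three CDR positions; double and triple changes were sampled at random. Affinity was read by AlphaSeq, a pooled yeast mating assay with surface-displayed partners. After mating in shaken culture at 30 °C for 16 h, diploids were selected and their barcode pairs sequenced. Scores were corrected for input abundance and mapped to Kd with protein pairs of known affinity run in the same pool. There are three technical replicates.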

Positions count from residue 1 of the parent VH; H35E puts E in place of H. This list gathers variants with a substitution at F106 (VH, numbered from residue 1). Scale: log10 of Kd in nM, estimated from mating counts; low values are strong binders. A pair that was not seen in that replicate is written "ND"; this usually means weak binding, but a binder can also be missed. Background: pairings of library AAYL51 with three empty control strains gave a value in 21% of cases (median 4.54, 5th percentile 3.26). Values in that range, when seen in few replicates, are hard to tell from nonspecific mating.

For H35E/A61N/F106I, the assay gave ND, ND, ND. The variant N54V/G104D/F106M showed ND, ND, ND. The variant G56I/G59W/F106N showed 5.14, 5.68, ND. With G26I/Y105Q/F106N the result was 4.85, 6.25, 5.23. The variant S55Q/G102C/F106T gave 4.69, ND, ND.

The variant G26L/D31Y/F106G gave ND, ND, ND. The variant Y32S/I58A/F106C gave 4.68, ND, 4.56. With Y32S/S52M/F106A the result was ND, ND, ND. The variant G56H/D62I/F106T showed ND, 4.45, ND. For F106V, the assay gave ND, ND, ND.

The variant T28I/F29M/F106N showed 4.36, 4.05, 5.28. The variant W53R/V99G/F106Q showed ND, ND, 4.93. With V64C/K65S/F106H the result was ND, 3.45, ND. With Y60H/F106N the result was 2.95, 3.65, 3.34. For R101G/F106I/Y108R, the assay gave 4.79, 4.90, ND.

For D31G/M34P/F106M, the assay gave ND, ND, ND. The variant D62L/V99S/F106I gave 3.04, 3.25, 2.91. The variant S52A/S55K/F106K showed 5.02, 4.35, 5.70. The variant I51Q/F106H gave ND, 6.12, ND. The variant D30P/A33G/F106M showed 0.48, 0.43, -0.20.

With V64T/G100Y/F106Q the result was ND, ND, ND. For M34R/K65V/F106I, the assay gave 4.79, ND, ND. With G100I/F106V the result was ND, ND, ND. The variant S63P/G102Q/F106L showed 3.56, ND, ND. For H35N/G104W/F106W, the assay gave 5.03, ND, ND.

The variant D31V/S57Q/F106G gave ND, ND, ND. The variant Y105E/F106N gave 4.40, 5.47, 4.94. The variant A33P/D62Q/F106D gave 3.07, 4.47, 3.51. The variant V64R/G102W/F106S gave ND, ND, ND. The variant F29T/S63W/F106S showed 4.87, ND, ND.

With S55Y/G56P/F106G the result was ND, ND, ND.

Top 5 of the variants detected in all replicates, tightest first:

| changes | replicates, log10 nM |
|---|---|
| D30P/A33G/F106M | 0.48, 0.43, -0.20 |
| D62L/V99S/F106I | 3.04, 3.25, 2.91 |
| Y60H/F106N | 2.95, 3.65, 3.34 |
| A33P/D62Q/F106D | 3.07, 4.47, 3.51 |
| T28I/F29M/F106N | 4.36, 4.05, 5.28 |